# Reference: PubChem BioAssay AID1424 (The Scripps Research Institute Molecular Screening Center, 2008)
# “And” between values parts separate entries of the source, which are not always exact repeats. Identical values can stand only once. This is a selection; strong and weak results do not stand in their true shares. The source made the active and inactive calls.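 The calls were made as follows: active = activation above its plate's cutoff, the mean activation of test wells on that plate plus 3 SD (cut at about 19% in these data); inactive = the rest.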
# Test system: transient receptor potential cation channel N1 (TRPN1/NompC), Danio rerio
# Experiment: TRPN1 activation via calcium influx – cell-based, HEK293, calcium fluorescence, zebrafish, primary screen (AID 1424);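 also: 0% = DMSO alone and 100% = 87 µM carbachol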
# Conditions: HEK293 zebrafish TRPN1-YFP, Fluo-8 calcium fluorescence; at 3 µM; hits give high values; 100% = response to 87 µM carbachol
# Summary of the method: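 Control set: carbachol 87 µM as high control, DMSO as low control; system: HEK293 stable line with zebrafish TRPN1-YFP; read-out: % activation versus carbachol response; detection: intracellular calcium fluorescence with Fluo-8; doses: single test compound dose, 3 µM nominal, 0.3% DMSO; schedule: dye 1 h 37 °C plus 30 min RT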
row,SMILES,activation
1,CCC(C)N(CC(C)C)C(=S)SC(NC(C)=O)C(Cl)(Cl)Cl (centres undefined),inactive: 0.52%
2,CCOC(=O)c1ccc(NC(=O)C(C)(CCl)SC)cc1 (centres undefined),inactive: 0.06%
3,O=C(COc1ccccc1)OC1CN2CCC1CC2 (centres undefined),inactive: 1.01%
4,COP1(=S)c2c(C)nn(CCC#N)c2N=C(c2ccc(F)cc2)N1C (centres undefined),inactive: -0.19%
5,O=P(Nc1ccccn1)(c1cccc2ccccc12)c1cccc2ccccc12,inactive: 1.12%
6,Cc1cc(SC(NC=O)C(Cl)(Cl)Cl)ncn1 (centres undefined),inactive: 0.17%
7,O=[N+]([O-])c1ccc(Nc2ccc(Oc3ccc([N+](=O)[O-])cc3[N+](=O)[O-])cc2)c([N+](=O)[O-])c1,inactive: 0.45%
8,CCOC(=O)Nc1cccc([As](=O)(O)O)c1,inactive: -1.41%
9,Cc1cc(SC(NC(=O)c2ccccc2)C(Cl)(Cl)Cl)nc(C(C)C)n1 (centres undefined),inactive: 1.22%
10,CCOC(=O)Nc1ccc([As](=O)(O)O)c(O)c1,inactive: -0.95%
11,CCN(CC)C(=S)SC(NC=O)C(Cl)(Cl)Cl (centres undefined),inactive: 0.12%
12,CC(C)NC(=O)NP(=O)(Oc1ccccc1)Oc1ccccc1,inactive: 0.13%
13,O=[N+]([O-])c1cc([N+](=O)[O-])c(-c2ccn[nH]2)s1,inactive: 0.44%
14,ClCCSc1nnc(-c2cccnc2)o1,inactive: 1.1%
15,CC(C)c1ccc(OP(=O)(Nc2ccccn2)Oc2ccccc2F)cc1 (centres undefined),inactive: 0.36%
16,Cc1ccc(OP(=O)(Nc2ccc([N+](=O)[O-])cn2)Oc2ccc(C)cc2)cc1,inactive: 0.49%
17,Cc1ccc2nc3c(c(C)c2c1)CC(C(Cl)Cl)S3 (centres undefined),inactive: -3.48%
18,C[As](=O)(O)c1cccc(C(=O)O)c1,inactive: 0.07%
19,O=[As](O)(c1ccc(O)cc1)c1ccccc1O,inactive: 1.1%
20,COc1ccc(N/C(=N/P(=O)(N2CCOCC2)N2CCOCC2)N2CCOCC2)cc1,inactive: 0.2%
21,COc1ccc2nc(NP(=O)(c3ccccc3)c3ccccc3)sc2c1,inactive: -2.34%
22,COc1cc(I)ccc1[As](=O)(O)O,inactive: 0.25%
23,Cc1c2c(nc3ccccc13)SC(C(Cl)Cl)C2 (centres undefined),inactive: -0.83%
24,O=C(OC1CN2CCC1CC2)C12CC3CC(CC(C3)C1)C2 (centres undefined),inactive: 0.34%
25,Cc1cc(=O)[nH]c(N[N+](=O)[O-])n1,inactive: 0.21%
26,COc1cc(C2NCCC3(OCCO3)C2(C)C)cc(OC)c1OC (centres undefined),inactive: -0.74%

row,SMILES,activation
1,CCOP(=O)(Nc1cccc2ccccc12)OCC,inactive: 0.4%
2,Nc1cccc2c([As](=O)(O)O)cccc12,inactive: 0.95%
3,Cc1ccc(NCCc2c([N+](=O)[O-])cc([N+](=O)[O-])cc2[N+](=O)[O-])cc1,inactive: 0.25%
4,CCCOP(=S)(Nc1nc(N)cc(=O)[nH]1)OCCC,inactive: 2.28%
5,O=[As](O)(c1cccc(O)c1)c1cccc(O)c1,inactive: 1.44%
6,Cc1cccc(OCC(=O)OC2CN3CCC2CC3)c1 (centres undefined),inactive: -0.46%
7,O=C(OC1CN2CCC1CC2)c1ccc(Cl)cc1 (centres undefined),inactive: 0.62%
8,COc1cc(C(=O)NCC2(N3CCOCC3)CCCCC2)cc(Cl)c1OC(C)C,inactive: -2.64%
9,O=[As](O)(O)c1cccnc1,inactive: 0.83%
10,CCOP1(=S)c2c(C)nn(CCC#N)c2N=C(c2ccc(F)cc2)N1C (centres undefined),inactive: -0.05%
11,O=[N+]([O-])c1ccc2c(c1)nnn2O,inactive: 0.19%
12,Nc1ccccc1[As](=O)(O)c1ccccc1,inactive: -0.01%
13,O=C(O)COc1ccc([As](=O)(O)O)cc1[N+](=O)[O-],inactive: -0.8%
14,CCOP1(=S)c2c(C)nn(CCC#N)c2N=C(c2ccccc2F)N1C (centres undefined),inactive: -0.71%
15,O=P(Nc1nccs1)(c1ccccc1)c1nc2ccccc2s1 (centres undefined),inactive: -1.52%
16,O=P(Nc1nccs1)(Oc1ccccc1)Oc1ccccc1,inactive: 0.5%
17,CS(=O)(=O)c1cc([N+](=O)[O-])c2no[n+]([O-])c2c1,inactive: 0.93%
18,Nc1cccc([As](=O)(O)c2ccccc2)c1,inactive: 0.43%
19,O=P1(Nc2ccc(Br)cn2)COc2ccccc2OC1,inactive: 1.93%
20,O=[As](O)(c1cccs1)c1cccs1,inactive: 1.49%
21,Cc1ccc(OCC(=O)OC2CN3CCC2CC3)cc1 (centres undefined),inactive: 0.02%
22,O=P1(Nc2ncccn2)COc2ccccc2OC1,inactive: 0.73%
23,CN(C)C1(CNC(=O)c2ccc(S(C)(=O)=O)cc2)CCCCC1,inactive: 0.45%
24,O=C(/C=C/c1ccccc1)OC1CN2CCC1CC2 (centres undefined),inactive: -0.66%
25,Cc1nn(-c2ccccc2)c2c1P(=O)(N1CCOCC1)N(C)C(c1ccccc1)=N2 (centres undefined),inactive: -0.83%
26,CC1CCC(C(C)C)C(OP(=O)(Nc2ccccn2)c2ccccc2)C1 (centres undefined),inactive: -1.27%

row,SMILES,activation
1,CC(C)/C=N\N=C(\N)N[N+](=O)[O-],inactive: 0.75%
2,CN(C(=O)Cc1ccc(Cl)c(Cl)c1)[C@@H]1CCCC[C@H]1N1CCCC1,inactive: -1.06%
3,O=[As](O)(c1ccccc1Br)c1ccccc1Br,inactive: 1.22%
4,CC1(CBr)Cn2c(nc3ccccc3c2=O)S1 (centres undefined),inactive: -0.08%
5,Clc1n[nH]nc1-c1nn[nH][15n]1,inactive: 0.15%
6,CC(C)(C)C(=O)NC(Sc1ncccn1)C(Cl)(Cl)Cl (centres undefined),inactive: -0.67%
7,O=P1(Nc2ccccn2)COc2ccccc2OC1,inactive: -0.76%
8,CCOP(=O)(Nc1ccc(C)cn1)OCC,inactive: 1.47%
9,c1nnnn1CCn1cnnn1,inactive: 1.09%
10,CC(C)C(=O)NC(Sc1ccccc1)C(Cl)(Cl)Cl (centres undefined),inactive: -2.38%
11,O=P(Nc1nccs1)(c1ccccc1)c1ccccc1,inactive: 1.66%
12,O=C(OC1CN2CCC1CC2)c1cccc(Cl)c1 (centres undefined),inactive: 0.74%
13,Nc1ccc([As](=O)(O)c2ccc([N+](=O)[O-])cc2)cc1,inactive: 0.77%
14,C(Cc1nn[nH]n1)Cc1nn[nH]n1,inactive: 2.3%
15,O=[As](O)(c1ccccc1)c1ccc(O)cc1,inactive: 0.7%
16,O=[N+]([O-])c1ncn(CCn2cnc([N+](=O)[O-])n2)n1,inactive: -0.63%
17,CC(=O)NC(SC(=S)N(C)C)C(Cl)(Cl)Cl (centres undefined),inactive: 0.69%
18,O=P(Nc1nc2ccccc2s1)(c1ccccc1)c1ccccc1,inactive: -0.14%
19,O=P(Nc1ccccn1)(c1ccc(Br)cc1)c1ccc(Br)cc1,inactive: 0.13%
20,Cc1ccccc1OP(=O)(Nc1ccccn1)Oc1ccccc1C,inactive: -0.51%
21,CN(C)C(=O)Oc1noc2ccccc12,inactive: 1.05%
22,O=c1c2cc([N+](=O)[O-])ccc2[nH]c2c([N+](=O)[O-])cc([N+](=O)[O-])cc12,active: 23.3%
23,CCC(=O)N1C2C3N(C(=O)CC)C1C1N(C(=O)CC)C(C(N1C(=O)CC)N3C(=O)CC)N2C(=O)CC,inactive: -0.04%
24,COC(=O)c1cc2c(s1)N=C(c1ccccc1)N(C)P2(=O)N1CCOCC1 (centres undefined),inactive: 0.43%
25,Cc1ccc(OP(=O)(Nc2ccccn2)Oc2ccc(C)cc2)cc1,inactive: -0.18%
26,CC(=O)NC(SC(=S)N(CC(C)C)CC(C)C)C(Cl)(Cl)Cl (centres undefined),inactive: 1.01%

row,SMILES,activation
1,c1ccc(-c2nn[nH]n2)c(-c2nn[nH]n2)c1,inactive: 1.58%
2,CCOC(=O)NC(Sc1ccccc1)C(Cl)(Cl)Cl (centres undefined),inactive: 0.02%
3,Cc1ccc(NP(=O)(Oc2cccc(C)c2)Oc2cccc(C)c2)nc1,inactive: -0.4%
4,CCNC(=S)/N=C(\N)N[N+](=O)[O-],inactive: -0.44%
5,O=C(NC1CCS(=O)(=O)C1)NP(=S)(Oc1ccccc1)Oc1ccccc1 (centres undefined),inactive: -1.6%
6,CC(=O)Nc1ccc([As](=O)(O)O)c(O)c1,inactive: 0.72%
7,CC(=O)Nc1ccc(Oc2c([N+](=O)[O-])cc([N+](=O)[O-])cc2[N+](=O)[O-])cc1,inactive: -0.73%
8,CC(C)(C)C(=O)NC(Sc1ccccc1)C(Cl)(Cl)Cl (centres undefined),inactive: -3.44%
9,O=P1(Nc2nc3ccc(Cl)cc3s2)COc2ccccc2O1 (centres undefined),inactive: -0.7%
10,CCOc1ccc(C2=NCC(CBr)S2)cc1 (centres undefined),inactive: 2.47%
11,Oc1ccccc1CNc1ccccn1,inactive: -0.14%
12,Cc1c2non([O-])c-2c(C)[n+](=O)[n+]1[O-],inactive: 4.23%
13,O=C(NC(Sc1ccncn1)C(Cl)(Cl)Cl)c1ccccc1 (centres undefined),inactive: 0.88%
14,CC(C)CC(=O)NC(Sc1ccc(Cl)cc1)C(Cl)(Cl)Cl (centres undefined),inactive: -1.85%
15,Nc1cc(N)c2nonc2c1[N+](=O)[O-],inactive: -0.12%
16,Clc1ccc(Cl)c(NC2=NCC(CBr)S2)c1 (centres undefined),inactive: -0.07%
17,CN1CCCC(OC(=O)C(c2ccccc2)c2ccccc2)C1 (centres undefined),inactive: 0.39%
18,COc1ccccc1OP(=O)(Nc1ccc(C)cn1)Oc1ccccc1OC,inactive: -1.02%
19,Cc1ccc(OP(=O)(Nc2nccs2)Oc2ccc(C)cc2)cc1,inactive: 0.31%
20,Cc1ccc(N/C(=N/P(=O)(N2CCOCC2)N2CCOCC2)N2CCOCC2)cc1,inactive: 1.64%
21,NC(=O)c1cc([N+](=O)[O-])cc([N+](=O)[O-])c1N,inactive: 0.15%
22,Nc1cccc2ccc([As](=O)(O)O)cc12,inactive: 1.01%
23,CCN(N=Nc1nonc1N)c1nonc1N,inactive: 1.41%
24,CCOP(=O)(Nc1ccccc1)OCC,inactive: -0.23% and inactive: -1.05%
25,Cc1cc(SC(NC(=O)c2ccc(F)cc2)C(Cl)(Cl)Cl)ncn1 (centres undefined),inactive: 0.46%
26,Cc1ccc(NP(=O)(Oc2ccccc2F)Oc2ccccc2F)nc1,inactive: 1.69%
